Consider one compound from ChEMBL document CHEMBL1128307, “2-Aralkynyl and 2-heteroalkynyl derivatives of adenosine-5'-N-ethyluronamide as selective A2a adenosine receptor agonists” (J Med Chem, 1995).

The structures appear in SMILES notation.

The test system of the assay is Adenosine receptors A1 & A2a (Rattus norvegicus). As to the kind of experiment: Selectivity as the ratio of Ki value towards A1 receptor to that of A2a receptor. The assay is classed as protein assay.

In the case of `C#Cc1nc(N)c2ncn([C@@H]3O[C@H](C(=O)NCC)[C@@H](O)[C@H]3O)c2n1`, the Selectivity turned out to be 0.6.
